In the assay the target is rat brain AChE (Rattus norvegicus, UniProt P37136). The conditions noted are these: IC50 BChE divided by IC50 for AChE.

Molecules are shown by their SMILES.

On to `c1ccc2c(NCCCCCCCCCNc3c4c(nc5ccccc35)CCCC4)c3c(nc2c1)CCCC3`, for which the Selectivity turned out to be 404.

Source of the values: patent publication US5886007A (priority 1997, dated 1999).
